ChEMBL document CHEMBL4665789, “Discovery of Novel pERK1/2- or β-Arrestin-Preferring 5-HT Receptor-Biased Agonists: Diversified Therapeutic-like versus Side Effect Profile” (J Med Chem, 2020)

Test: Permeability of the compound at 100 uM measured after 40 mins by PAMPA
Assay type: ADME
Details: read-out: permeability

Papp at 40 min, 100 µM: 0.56 ×10⁻⁶ cm/s
Compound: CCn1cc(C(=O)O)c(=O)c2cc(F)c(N3CCNCC3)cc21 [NORFLOXACIN]
